From patent US20180110799A1, “Compositions and Methods for the Inhibition of Chondrogenesis” (The Children's Hospital of Philadelphia, priority 2014, published 2018)

Test system: endogenous heparanase
Assay: Immunoblot of endogenous heparanase protein in micromass cultures
Assay type: cell-based, mouse
Conditions: 100 ng/ml; day 2 micromass cultures treated 24 or 48 hours; densitometry
Experimental: Micromass cultures were prepared from the mesenchymal cells of E11.5 mouse embryo limb buds (Ahrens et al. (1979) Dev. Biol., 69:436-50). Dissociated cells were suspended at a concentration of 5×10^6 cells/ml in DMEM containing 3% fetal bovine serum and antibiotics. Micromass cultures were initiated by spotting 20 μl of the cell suspensions (1.5×10^5 cells) onto the surface of 24-well tissue culture dishes. After a 90-minute incubation at 37° C. in a humidified CO2 incubator to allow for cell attachment, the cultures were supplied with 0.25 ml of medium. After 24 hours, medium supplemented with the indicated concentrations of Surfen (bis-2-methyl-4-aminoquinolyl-6-carbamide), bacterial heparitinase III (Sigma), recombinant human BMP2 (R&D Systems), recombinant human heparanase, or roneparstat (Sigma-Tau Research S.A.). Fresh reagents (drug and/or protein) were given with medium change every other day. Equivalent amounts of vehicle were added to control cultures. […]
ATDC5 cells were grown to 100% confluence in 6-well plates and treated with indicated concentrations of Surfen, bis-2-methyl-4-amino-quinolyl-6-carbamide. […] The membranes were re-blotted with antibodies to α-tubulin (Sigma T-5168, 1:2000) for normalization, and band intensities were quantified by computer-assisted image analysis.

rhBMP2: recombinant human BMP2 (R&D Systems)
increase of endogenous heparanase protein levels: about 2 fold
